Test results taken from patent US20040092531A1.

System: neuropathic pain (allodynia against cold) in male Sprague-Dawley rats
Test: Bennett test on rats (cold allodynia on 4° C. metal plate)
Conditions: intravenous, ketamine 4.64 mg/kg, then fades away, FIG. 1

In the case of `CNC1(c2ccccc2Cl)CCCCC1=O` (stereo not shown), the “period for which the analgesic effect lasts” value is reported as “about 3 hours”.
